Results taken from patent EP4843994A1, “NOVEL PEPTIDE HAVING MUSCLE FORMATION-PROMOTING ACTIVITY, ANTI-OBESITY ACTIVITY AND ANTI-DIABETIC ACTIVITY AND USES THEREOF” (dated 2026).

Tests used:
C2C12 cells = assay: Expression of differentiation marker genes and muscle protein synthesis signaling genes in differentiation-induced myoblasts (RT-PCR); details: differentiation induced with 2% horse serum, 3 days
Procedure: C2C12 cells (mouse-derived myoblasts) were cultured in DMEM medium containing 1% P/S and 2% BCS (bovine calf serum). When cell confluency reached 70 to 80%, cells were seeded into 6-well culture plates at a concentration of 5 x 10^5 cells/2 ml. Subsequently, when cell confluency reached 100% in a 6-well culture plate, the differentiation medium (1% P/S, 2% horse serum) and peptides (5µM, 50µM) were replaced. After that, the differentiation medium (1% P/S, 2% horse serum) and peptides (5µM, 50µM) were replaced every two days, and cells were harvested three days after the first replacement and RNA was extracted using Trizol (Thermo Fisher Scientific, USA). The extracted RNA was used to synthesize DNA complementary to the RNA using TOPScript™ RT DryMIX (enzynomics, Korea), and then polymerase chain reaction (PCR) was performed on genes of early and mid-differentiation markers and markers involved in signaling involved in muscle protein synthesis using TOPsimple™ DryMIX-nTaq (enzynomics, Korea). Next, the reaction products were run on a 1.5% agarose gel to compare the mRNA expression levels of the markers for each sample. The primer sequences for the genes used in the PCR are listed in Table 3 below, and the GAPDH gene was used as a control group.
According to the above experimental method, differentiation was induced in C2C12 myoblasts with 2% horse serum, and at the same time the peptide was treated for 3 days to confirm the effect of the peptide on differentiation.

HepG2 cells [1] = assay: Expression of adipogenesis and lipolysis related proteins in hepatocytes (Western blot); details: 500 µM oleic acid, peptide 5 µM, 50 µM, 48 hours
Procedure: HepG2 cells (human-derived hepatocytes) were cultured in DMEM medium comprising 1% P/S and 10% FBS. When cell confluency reached approximately 70 to 80%, cells were seeded into a 12-well culture plate at a concentration of 1 x 10^5 cells/1 ml. Subsequently, when cell confluency reached approximately 70 to 80% in a 12-well culture plate, the medium was replaced with serum-free DMEM. After 4 hours, lipid accumulation was induced by replacing the medium with serum-free DMEM (1% BSA) supplemented with 500 µM oleic acid (Sigma, St. Louis, MO, USA). After inducing fat accumulation for 24 hours, the cells were cultured for 48 hours with serum-free DMEM (1% BSA) supplemented with 500 µM oleic acid (Sigma, St. Louis, MO, USA) and peptides (5 µM, 50 µM). After culture, lysis buffer was added to lyse the cells, and the cell lysate was centrifuged at 4°C and 12,000 rpm for 30 minutes to obtain the protein. The obtained protein was quantified using a BCA kit. The protein was electrotransferred onto a membrane after performing SDS-PAGE (sodium dodecyl sulfate-polyacrylamide gel electrophoresis). After blocking the protein-attached membrane with 5% skim milk, the membrane was treated with the primary antibody and reacted overnight at 4°C. The primary antibodies used were as follows: anti-SREBP1 antibody (Abcam, UK); anti-FAS antibody (Cell signaling Technology, USA); anti-ATGL antibody (Cell signaling Technology, USA); anti-pHSL antibody (Cell signaling Technology, USA); anti-β-actin antibody (Santa Cruz, USA). The reactant was washed with PBS-T, then the secondary antibodies (Peroxidase-conjugated AffiniPure Goat Anti-Rabbit IgG (H+L), Jackson immunoResearch, USA; Peroxidase-conjugated AffiniPure Goat Anti-Mouse IgG (H+L), Jackson immunoResearch, USA) were reacted at room temperature for 1 hour, washed again with PBS-T, and then visualized using Gel Doc (Bio-Rad, Hercules, CA, USA) by treatment with Western detection reagent (Elpis Biotech, Daejeon, Korea).

HepG2 cells [2] = assay: Expression of insulin resistance and sensitivity related proteins in hepatocytes (Western blot); details: 500 µM oleic acid (insulin resistance), peptide 5 µM, 50 µM, 48 hours
Procedure: HepG2 cells (human-derived hepatocytes) were cultured in DMEM medium containing 1% P/S and 10% FBS. When cell confluency reached approximately 70 to 80%, cells were seeded into a 12-well culture plate at a concentration of 2 x 10^5 cells/ml. Subsequently, when cell confluency in the 12-well culture plate reached approximately 70 to 80%, the medium was replaced with serum-free DMEM medium. After 4 hours, insulin resistance was induced by replacing the medium with serum-free DMEM (1% BSA) supplemented with 500 µM oleic acid (Sigma, St. Louis, MO, USA). After induction for 24 hours, the cells were replaced with serum-free DMEM (1% BSA) supplemented with 500 µM oleic acid (Sigma, St. Louis, MO, USA) and peptides (5 µM, 50 µM), and cultured for 48 hours. After culture, lysis buffer was added to lyse the cells, and the cell lysate was centrifuged at 12,000 rpm and 4°C for 30 minutes to obtain the protein. The obtained protein was quantified using a BCA kit. The protein was electrotransferred onto a membrane after performing SDS-PAGE (sodium dodecyl sulfate-polyacrylamide gel electrophoresis). After the membrane onto which the protein had been electrotransferred was blocked by treatment with 5% skim milk, it was treated with the primary antibody and incubated overnight at 4°C. The primary antibodies used are as follows: anti-pmTOR antibody (Cell signaling Technology, USA); anti-pJNK antibody (Santa Cruz, USA); anti-GLUT4 antibody (Invitrogen, USA); anti-SIRT1 antibody (Cell signaling Technology, USA); anti-pAMPKα antibody (Cell signaling Technology, USA); anti-β-actin antibody (Santa Cruz, USA). The reactant was washed with PBS-T, then reacted with secondary antibodies (Peroxidase-conjugated AffiniPure Goat Anti-Rabbit IgG (H+L), Jackson immunoResearch, USA; Peroxidase-conjugated AffiniPure Goat Anti-Mouse IgG (H+L), Jackson immunoResearch, USA) at room temperature for 1 hour, washed again with PBS-T, and then visualized by treatment with a Western detection reagent (Elpis Biotech, Daejeon, Korea) using Gel Doc (Bio-Rad, Hercules, CA, USA).
Through the above experiment, it was aimed to determine whether insulin sensitivity is induced by treating HepG2 cells, in which an insulin resistance environment was induced by oleic acid treatment, with peptides. Whether insulin sensitivity was induced was confirmed by analyzing the expression levels of factors related to insulin resistance or sensitivity using Western blot.

## C[C@@H](O)[C@H](NC(=O)CNC(=O)[C@@H](N)Cc1c[nH]cn1)C(=O)N[C@@H](Cc1ccc(O)cc1)C(=O)O
C2C12 cells; 50 µM of peptide
  expression of Myf6 (gene) compared to the control group: 1.8 fold
C2C12 cells; peptide 5 µM, 50 µM
  expression level of Myf4 (gene): increased in a concentration-dependent manner
  expression level of Myf5 (gene): increased in a concentration-dependent manner
  expression level of Myf6 (gene): increased
  expression level of MyoD (gene): increased
  expression level of mTOR (gene): increased in a concentration-dependent manner
HepG2 cells [1]
  expression level of ATGL protein: increased again
  expression level of pHSL protein: increased again
  expression of FAS protein: decreased again
  expression of SREBP1 protein: decreased again
HepG2 cells [2]
  expression level of GLUT4: increased again
  expression level of SIRT1: increased again
  expression level of pAMPKα: increased again
  expression level of pJNK: decreased again
  expression level of pmTOR: decreased again
